Among the data in PubChem BioAssay AID594 (National Center for Advancing Translational Sciences (NCATS), 2007) are outcome values, retold here.

This is a selection; strong and weak results do not stand in their true shares. Active and inactive are the calls of the source. Cut-off read from the data, not from the text of the source: active = max dye-equivalent concentration above about 11 nM; inconclusive = between about 1.1 nM and that limit; inactive = weaker than that.

The nature of the assay: qHTS Assay for Spectroscopic Profiling in Rhodamine Spectral Region. The note with it: Rhodamine-region fluorescence, 547/598 nm, Tris buffer. An excerpt: NIH Molecular Libraries Screening Centers Network [MLSCN] NIH Chemical Genomics Center [NCGC] […] Occasionally, the artifactual effect may originate from the compound#s own spectral or other biophysical properties which generally tend to track its assay concentration. Pre-screening/profiling the library with respect to the compounds# spectral properties should help one exclude false positives early on. While the most informative fluorescent profiling data set is obtained by performing a full excitation and emission scan of each well by using a monochromator-based plate reader, such an approach is practical only on a very limited scale as scanning each well requires long time. An alternative approach, applied here, is to perform plate reader scans using selected excitation and emission wavelength pairs to generate a multidimensional relational database that correlates compound concentration and the respective relative fluorescence intensity at a given wavelength set. A standard curve of rhodamine present on each plate as six-point concentration series, was used to compute a normalized fluorescence response, termed dye-equivalent concentration, for each compound at each concentration.
NCGC Assay Protocol Summary: Buffer: 100 mM Tris buffer, pH 8.0 Dye standard plate: The wells in columns 1 through 4 of a Kalypsys polypropylene 1536-well compound plate were filled with standard solutions of fluorophore corresponding to the spectral region of interest. Solutions of rhodamine were placed in the following wells: E1, F1: 3 mM, E2, F2: 300 uM, E3, F3: 30 uM, E4, F4: zero (DMSO), G1, H1: 3 uM, G2, H2: […], G3, H3: 300 nM, G4, H4: zero (DMSO). Assay Steps: Six uL of buffer were dispensed to 1536-well Greiner black plates. Compounds and dye standards (23 nL) were transferred via Kalypsys PinTool. The plates were incubated for 15 min at room temperature, and then read on ViewLux (Perkin-Elmer) High-throughput CCD imager using 547 nm and 598 nm excitation and emission filter set. Keywords: NIH Roadmap, MLSCN, MLI, MLSMR, qHTS, NCGC, Rhodamine , Fluorescent Profiling.
A general note: In qHTS, concentration-response curves come from the screen itself.
With `[N-]=[N+]=NCC(O)CN=[N+]=[N-]` (centres undefined), the outcome was inactive.

As to `Cc1nc2ccc3ccccc3c2o1.O=[N+]([O-])c1cc([N+](=O)[O-])c(O)c([N+](=O)[O-])c1`, the outcome was inactive.

Regarding `C(Cc1nn[nH]n1)c1nn[nH]n1`, the compound was classed as inactive.

Take `COc1ccccc1OP(C)(=O)Nc1ccc(C)c(C)c1` (centres undefined): the compound was called inactive.

`NCC[C@@H](N)CSP(=O)(O)O`: the compound was classed as inactive.

With `O=[N+]([O-])c1ccc(C[As](=O)(O)O)cc1`, the compound was called inactive.

`O=C(CO)Nc1ccc([As](=O)(O)O)cc1`: the compound was classed as inactive.

Turning to `N#[O+].[C-]#N.[C-]#N.[C-]#N.[C-]#N.[C-]#N.[Fe+2].[Na+].[Na+]`, the result was inactive.

On to `CCN(CC)CC(O)COC(=O)C(O)(c1ccccc1)C1CCCCC1` (centres undefined), for which the call was inactive.

Turning to `CCc1nc2c(n1)c1c(non1O)c1c2no[n+]1[O-]`, the compound was called inactive.

With `COc1ccccc1OP(C)(=O)Nc1c(C)n(C)n(-c2ccccc2)c1=O` (centres undefined), the call was inactive.

For the compound `C/C1=C2N=C(/C=C3N=C(/C(C)=C4\[N-][C@@](C)([C@H]5N=C1[C@@](C)(CCC(=O)NC[C@H](C)OP(=O)([O-])O[C@@H]1[C@H](O)[C@H](n6cnc7cc(C)c(C)cc76)O[C@@H]1CO)[C@@H]5CC(N)=O)[C@](C)(CC(N)=O)[C@H]4CCC(N)=O)[C@@](C)(CC(N)=O)[C@@H]\3CCC(N)=O)C(C)(C)[C@@H]/2CCC(N)=O.[C-]#N.[Co+3]`, the compound was classed as inactive.

As for `CN(C(=O)Cc1ccccc1)[C@@H]1CC[C@@]2(CCCO2)C[C@H]1N1CCCC1`, the compound was classed as inactive.

Regarding `O=C(OC1CN2CCC1CC2)c1cccc(Cl)c1` (centres undefined), the compound was classed as inactive.

With `[N-]=[N+]=Nc1ccc([As](=O)(O)O)cc1`, the result was inactive.

Turning to `CN(C)CCOC(=O)C(O)(c1ccccc1)C1CCCCC1` (centres undefined), the compound was called inactive.

In the case of `CN1CCC[C@H](OC(=O)C(c2ccccc2)c2ccccc2)C1`, the call was inactive.

Take `NNC(NN)NN.n1nc(-c2nn[nH]n2)n[nH]1`: the call was inactive.

For `C[C@@H](O)COc1ccc([As](=O)(O)O)cc1N`, the compound was classed as inactive.

Take `Cc1ccccc1NP(C)(=O)Nc1ccccc1C`: the call was inactive.

Turning to `O=P(Nc1nccs1)(c1ccccc1)c1ccccc1`, the compound was called inactive.

For `c1nnnn1CCn1cnnn1`, the result was inactive.

On to `CCOP(C)(=S)SCC(=O)NC(C)(CC)C(=O)O` (centres undefined), for which the compound was called inactive.

On to `O=P1(Nc2nc3ccc(Cl)cc3s2)COc2ccccc2O1` (centres undefined), for which the result was inactive.

In the case of `CP(=O)(Nc1ccccc1F)Oc1ccccc1` (centres undefined), the call was inactive.

Take `COC(=O)c1cc2c(s1)N=C(c1ccccc1)N(C)P2(=O)N1CCOCC1` (centres undefined): the compound was classed as inactive.

Take `NC(=O)Nc1ccc([As](=O)(O)O)cc1`: the outcome was inactive.

On to `CCOP1(=S)c2c(C)nn(CCC#N)c2N=C(c2ccc(F)cc2)N1C` (centres undefined), for which the result was inactive.

`O=P(Nc1nccs1)(c1ccccc1)c1nc2ccccc2s1` (centres undefined): the compound was called inactive.
